Results published in PubChem BioAssay AID1974 (The Scripps Research Institute Molecular Screening Center, 2009).
The entries are a selection whose mix differs from that of the whole data set. Some salts and complexes are drawn in separate pieces, as the source files them; their charges need not balance. Activity calls are given as the source filed them.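 Rule for the calls: active = inhibition above the campaign mean inhibition plus 3 SD (cut at about 35% in these data); inactive = the rest.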

Sequences of proteins named here, by UniProt entry; tags and fusion partners are left off.
UniProt P78417, whole entry: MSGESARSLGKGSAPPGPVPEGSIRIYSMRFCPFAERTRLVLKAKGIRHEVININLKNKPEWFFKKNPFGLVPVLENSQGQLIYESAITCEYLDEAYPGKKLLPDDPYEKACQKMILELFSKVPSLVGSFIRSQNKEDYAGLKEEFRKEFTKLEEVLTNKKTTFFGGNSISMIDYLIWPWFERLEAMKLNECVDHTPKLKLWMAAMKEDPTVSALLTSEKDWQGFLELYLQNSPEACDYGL

What follows are molecules tested against Glutathione S-transferase omega-1 (Homo sapiens) (UniProt P78417) (assay: human GSTO1 enzyme inhibition – biochemical, fluorescence polarization, counter-screen for RBBP9 inhibitor project, primary screen (AID 1974;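 note: 0% = GSTO1-1 with DMSO and 100% = wells lacking GSTO1-1 enzyme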)). Details: recombinant GSTO1, activity-based probe fluorescence polarization; at 5.96 µM; active compounds read high.
With Cc1ccccc1NP(C)(=O)Nc1ccccc1C the inhibition was inactive: 8.37%. CP(=O)(Nc1ccc2c(c1)OCCO2)Oc1ccccc1 (configuration not stated) was tested, and the inhibition was inactive: 5.28%. With CCOP(C)(=S)SCC(=O)NC(C)(CC)C(=O)O (configuration not stated) the inhibition was inactive: -14.7%. With CP(=O)(Nc1ccc(SC(F)(F)F)cc1)Oc1ccc(F)cc1 (configuration not stated) the inhibition was inactive: 5.87%. In the case of O=[N+]([O-])c1cc([N+](=O)[O-])c(NCC2CCS(=O)(=O)C2)c([N+](=O)[O-])c1 (configuration not stated), the inhibition is reported as inactive: 12.7%. For COc1ccc(NP(C)(=O)Oc2ccccc2OC)cc1 (configuration not stated), the inhibition was inactive: 9.95%. In the case of CN(C)CCOC(=O)C(O)(c1ccccc1)C1CCCCC1 (configuration not stated), the inhibition is reported as inactive: 14.1%. In the case of COc1ccc(OP(C)(=O)Nc2cccc(Br)c2)cc1 (configuration not stated), the inhibition is reported as inactive: -6.17%. In the case of O=[N+]([O-])c1cc([N+](=O)[O-])c(OC2CCCCC2O)c([N+](=O)[O-])c1 (configuration not stated), the inhibition is reported as inactive: -4.58%. With CCCCCOc1ccc(NP(C)(=O)Oc2ccc(Cl)cc2Cl)cc1 (configuration not stated) the inhibition was inactive: 0.75%. In the case of CP(=O)(Nc1ccccc1)Oc1ccc(F)cc1 (configuration not stated), the inhibition is reported as inactive: 2.77%. In the case of CCN(CC)CCCOC(=O)C(O)(c1ccccc1)C1CCCCC1 (configuration not stated), the inhibition is reported as inactive: 5.22%. In the case of COc1ccc(OP(C)(=O)Nc2ccc(SC(F)(F)F)cc2)cc1 (configuration not stated), the inhibition is reported as inactive: 9.35%. For CCOC(=O)c1ccc(NP(C)(=O)Oc2ccc(F)cc2)cc1 (configuration not stated), the inhibition was inactive: 1.67%. COc1ccc2c(c1O)-c1c(O)c(OC)cc3c1[C@H](C2)[N+](C)(C)CC3.O=[N+]([O-])c1cc([N+](=O)[O-])c([O-])c([N+](=O)[O-])c1[O-] was tested, and the inhibition was inactive: 12.4%. With O=C(OCCN1CCN(CCOCc2ccccc2)CC1)C(O)(c1ccccc1)c1ccccc1 the inhibition was inactive: 7.12%. For O=C(OC1CN2CCC1CC2)c1ccc([N+](=O)[O-])cc1 (configuration not stated), the inhibition was inactive: -5.22%. With CC(C)c1ccc(OP(C)(=O)Nc2ccc(SC(F)(F)F)cc2)cc1 (configuration not stated) the inhibition was inactive: -2.08%. CP(=O)(Nc1ccccc1F)Oc1ccccc1 (configuration not stated) was tested, and the inhibition was inactive: -0.88%. In the case of CCc1ccc(OP(C)(=O)O)cc1, the inhibition is reported as inactive: 8.72%. COc1ccccc1OP(C)(=O)Nc1ccc(C)cc1C (configuration not stated) was tested, and the inhibition was inactive: -0.94%. CP(=O)(Nc1ccccn1)Oc1ccccc1 (configuration not stated) was tested, and the inhibition was inactive: 0.33%. For O=[N+]([O-])c1cc([N+](=O)[O-])c(Nc2ccccn2)c([N+](=O)[O-])c1, the inhibition was active: 84.8%. For Cc1c(NP(C)(=O)Oc2ccc(C(C)C)cc2)c(=O)n(-c2ccccc2)n1C (configuration not stated), the inhibition was inactive: 4.76%. In the case of CN(C)CCOC(=O)C(O)(c1ccccc1)C1CCCC1 (configuration not stated), the inhibition is reported as inactive: 2.18%. With COc1ccccc1OP(C)(=O)Nc1ccc(Br)cc1 (configuration not stated) the inhibition was inactive: -1.81%. CP(=O)(OCCOc1ccccc1)OCCOc1ccccc1 was tested, and the inhibition was inactive: 12.2%. For CP(=O)(Nc1ccc(Cl)cc1Cl)Oc1ccccc1 (configuration not stated), the inhibition was inactive: -1.37%. Cc1nc2ccc3ccccc3c2o1.O=[N+]([O-])c1cc([N+](=O)[O-])c(O)c([N+](=O)[O-])c1 was tested, and the inhibition was inactive: 19%. COc1ccc(OP(C)(=O)Nc2ccccc2Br)cc1 (configuration not stated) was tested, and the inhibition was inactive: -0.98%. With COc1ccccc1OP(C)(=O)Nc1ccc(C)c(C)c1 (configuration not stated) the inhibition was inactive: 5.9%. With Cc1cc(C)cc(OP(C)(=O)Nc2cccc(C(F)(F)F)c2)c1 (configuration not stated) the inhibition was inactive: -1.64%. With CP(=O)(OC12CC3CC(CC(C3)C1)C2)OC12CC3CC(CC(C3)C1)C2 the inhibition was inactive: 4.02%. With CCOC(=O)c1ccc(NP(C)(=O)Oc2ccc(Cl)cc2)cc1 (configuration not stated) the inhibition was inactive: 4.63%. With Nc1ccc2c(ccc3cccnc32)n1.O=[N+]([O-])c1cc([N+](=O)[O-])c(O)c([N+](=O)[O-])c1 the inhibition was inactive: -1.55%. In the case of CN(C)C(=O)c1c([N+](=O)[O-])cc([N+](=O)[O-])cc1[N+](=O)[O-], the inhibition is reported as inactive: 34.3%. CP(=O)(Nc1ccc(Cl)cc1)Oc1ccc(F)cc1 (configuration not stated) was tested, and the inhibition was inactive: -1.21%. With CC(C)(C)c1ccc(OP(C)(=O)O)cc1 the inhibition was inactive: -1.06%. For COc1ccccc1OP(C)(=O)Nc1ccccc1Br (configuration not stated), the inhibition was inactive: -1.87%. In the case of CCc1ccc(OP(C)(=O)Nc2cccnc2)cc1 (configuration not stated), the inhibition is reported as inactive: -0.46%. In the case of CP(=O)(Oc1ccccc1)N1CCOC1=O (configuration not stated), the inhibition is reported as inactive: -3.14%. For O=C(OCCCN1CCCC1)C(O)(c1ccccc1)C1CCCCC1 (configuration not stated), the inhibition was inactive: 10%. For COc1ccccc1OP(C)(=O)Nc1c(C)n(C)n(-c2ccccc2)c1=O (configuration not stated), the inhibition was inactive: 1.22%. For COc1ccc(OP(C)(=O)Nc2ccc(Br)cc2)cc1 (configuration not stated), the inhibition was inactive: 1.1%. For CCN(CC)CC(O)COC(=O)C(O)(c1ccccc1)C1CCCCC1 (configuration not stated), the inhibition was inactive: -2.01%. CP(=O)(Nc1ccccn1)Oc1ccc(Cl)cc1 (configuration not stated) was tested, and the inhibition was inactive: 1.32%. For CCOP(C)(=S)SCC(=O)NC(C)C(=O)O (configuration not stated), the inhibition was inactive: 0.94%. O=[N+]([O-])c1cc([N+](=O)[O-])c(O)c([N+](=O)[O-])c1.c1ccc(Oc2ccncc2)cc1 was tested, and the inhibition was inactive: -1.19%. In the case of CCOC(=O)c1ccc(NP(C)(=O)Oc2ccc(OC)cc2)cc1 (configuration not stated), the inhibition is reported as inactive: -4.77%. For Cc1cc(C)cc(OP(C)(=O)Nc2ccc(SC(F)(F)F)cc2)c1 (configuration not stated), the inhibition was inactive: -2.5%. With CCc1ccc(OP(C)(=O)N2CCN(c3ccc([N+](=O)[O-])cc3)CC2)cc1 (configuration not stated) the inhibition was inactive: 3.08%. With CP(=O)(NC(=O)Nc1ccccc1)Oc1ccccc1 (configuration not stated) the inhibition was inactive: -1.67%. With CP(=O)(Oc1ccccc1)OC(c1ccccc1)C(F)(F)F (configuration not stated) the inhibition was inactive: -4.32%. For CP(=O)(Nc1ccc(SC(F)(F)F)cc1)Oc1ccc(Cl)cc1 (configuration not stated), the inhibition was inactive: 7.16%. Cc1cccc(C)c1OP(C)(=O)Nc1ccc(SC(F)(F)F)cc1 (configuration not stated) was tested, and the inhibition was inactive: -1.69%. COc1ccccc1OP(C)(=O)Nc1ccccc1 (configuration not stated) was tested, and the inhibition was inactive: 7.01%. CP(=O)(Nc1ccccc1Br)Oc1ccccc1 (configuration not stated) was tested, and the inhibition was inactive: -3.4%. In the case of CP(=S)(Nn1cnnc1)Oc1ccccc1 (configuration not stated), the inhibition is reported as inactive: 8.44%. With COc1ccc(OP(C)(=O)Nc2cccc(F)c2)cc1 (configuration not stated) the inhibition was inactive: 3.79%. For COc1ccccc1OP(C)(=O)Nc1cc(Cl)ccc1C (configuration not stated), the inhibition was inactive: -1.54%. With Cc1cc(C)cc(OP(C)(N)=O)c1 (configuration not stated) the inhibition was inactive: -5.65%. For CCOC(=O)c1ccc(NP(C)(=O)Oc2ccccc2)cc1 (configuration not stated), the inhibition was inactive: 2.35%. Cc1ccc(NP(C)(=O)Oc2ccccc2)c(C)c1 (configuration not stated) was tested, and the inhibition was inactive: 1.04%. COc1ccccc1OP(C)(=O)Nc1ccc(C)cc1 (configuration not stated) was tested, and the inhibition was inactive: 2.67%. Cc1cccc(C)c1OP(C)(N)=O (configuration not stated) was tested, and the inhibition was inactive: -4.63%. In the case of CC(C)(C)c1ccc(OP(C)(=O)Nc2ccc(SC(F)(F)F)cc2)cc1 (configuration not stated), the inhibition is reported as inactive: 2.54%. O=[N+]([O-])c1ccc2c(c1)C=Nc1ccccc1O2 was tested, and the inhibition was inactive: 1.07%. For O=[N+]([O-])c1cc([N+](=O)[O-])c(Nc2cccnc2)c([N+](=O)[O-])c1, the inhibition was active: 40.2%. For CCN(CC)CCCOC(=O)C(O)(c1ccccc1)c1ccccc1, the inhibition was inactive: 2.3%. CP(=O)(Nc1cccc(Br)c1)Oc1ccccc1 (configuration not stated) was tested, and the inhibition was inactive: 7.7%. With Cc1cc(C)cc(OP(C)(=O)Nc2ccccn2)c1 (configuration not stated) the inhibition was inactive: 2.1%. In the case of Cc1ccc(C)c(NP(C)(=O)Oc2ccccc2)c1 (configuration not stated), the inhibition is reported as inactive: 11.3%. In the case of Cc1cc(C)cc(OP(C)(=O)Nc2ccc(C)cc2C)c1 (configuration not stated), the inhibition is reported as inactive: -6.67%. CCOC(=O)c1ccc(NP(C)(=O)Oc2cc(C)cc(C)c2)cc1 (configuration not stated) was tested, and the inhibition was inactive: 3.57%. With COc1ccccc1OP(C)(=O)Nc1cccc(Br)c1 (configuration not stated) the inhibition was inactive: -2.77%. With CC1=NCCc2c1[nH]c1ccccc21.O=[N+]([O-])c1cc([N+](=O)[O-])c(O)c([N+](=O)[O-])c1 the inhibition was inactive: 0.94%. With O=C(O)c1cccc(Nc2c([N+](=O)[O-])cc([N+](=O)[O-])cc2[N+](=O)[O-])c1 the inhibition was active: 37.3%. In the case of CP(=O)(Nc1ccc(SC(F)(F)F)cc1)Oc1ccccc1 (configuration not stated), the inhibition is reported as inactive: 9.61%. CCCOc1ccc(NP(C)(=O)Oc2ccc(Cl)cc2)cc1 (configuration not stated) was tested, and the inhibition was inactive: -4.66%. With CN1CCCCC1COC(=O)C1(O)c2ccccc2CCc2ccccc21 (configuration not stated) the inhibition was inactive: 1.73%. For COc1ccccc1OP(C)(=O)Nc1c(C)cccc1C (configuration not stated), the inhibition was inactive: 3.72%. For CCOC(=O)C(CC)C1=NC(C)(C)Cc2ccccc21.O=[N+]([O-])c1cc([N+](=O)[O-])c(O)c([N+](=O)[O-])c1 (configuration not stated), the inhibition was inactive: 11.2%. For O=[N+]([O-])c1cc([N+](=O)[O-])c(Nc2nnnn2CCO)c([N+](=O)[O-])c1, the inhibition was inactive: 8.63%. With CC1=C2N=C(C=C3N=C(C(C)=C4[N-][C@@](C)([C@@H]5N=C1[C@](C)(CCC(=O)NC[C@@H](C)OP(=O)([O-])O[C@H]1[C@@H](O)[C@@H](n6cnc7cc(C)c(C)cc76)O[C@@H]1CO)[C@H]5CC(N)=O)[C@@](C)(CC(N)=O)[C@@H]4CCC(N)=O)[C@@](C)(CC(N)=O)[C@@H]3CCC(N)=O)C(C)(C)[C@@H]2CCC(N)=O.[C-]#N.[Co+3] the inhibition was active: 77.1%. With Cc1nc2ccc3ccccc3c2s1.O=[N+]([O-])c1cc([N+](=O)[O-])c(O)c([N+](=O)[O-])c1 the inhibition was inactive: -10.3%. In the case of O=[N+]([O-])c1cc([N+](=O)[O-])c(-c2cnn(-c3ccccc3)c2)c([N+](=O)[O-])c1, the inhibition is reported as inactive: 6.15%. With O=[N+]([O-])c1cc([N+](=O)[O-])c(-n2nnc3ccccc32)c([N+](=O)[O-])c1 the inhibition was inactive: -6.04%.
